Data set [1] is described as follows: Dissolution of water insoluble additive in demineralized water on adding a counterpart salt forming species (visual).
A short description of data set [2]: Dissolution of additive salt in water / caprolactam solvent medium (visual). In kind it is physicochemical. The conditions noted are these: Nylostab SEED 4.43 g + isophthalic acid 1.66 g in 4.43 g caprolactam / 11.6 g demineralized water (Example 4). How it is done: Caprolactam (4.43 g) was dissolved in 11.6 g demineralized water. […] The solution was about 20 w % Nylostab SEED and 20 w % Caprolactam.

Where [3] appears, read: Irganox 1310 0.278 g + 2-methylpentamethylenediamine 0.116 g in 1 g demineralized water (Example 8).

Consider `CC(C)(C)c1cc(CCC(=O)O)cc(C(C)(C)C)c1O` [Irganox 1310, 3-(3,5-di-t-butyl-4-hydroxyphenyl)propionic acid], for which the “additive content of solution” value is listed as “about 8 w %” in data set [1] (Example 8, 3 g water, 0.232 g 2-methylpentamethylenediamine in total) and “about 20 w %” in data set [1] (setting [3]). In addition, the “dissolution (observation)” value in data set [1] (Example 8, 3 g water, after an additional 0.116 g 2-methylpentamethylenediamine) was “the precipitate dissolved”; in data set [1] (setting [3]) it was “dissolved to form a clear colourless solution”.

In the case of `CC1(C)CC(NC(=O)c2cccc(C(=O)NC3CC(C)(C)NC(C)(C)C3)c2)CC(C)(C)N1` [Nylostab SEED, N,N′-bis(2,2,6,6-tetramethyl-4-piperidinyl)-1,3-benzenedicarboxamide], in data set [2], the “dissolution (observation)” value is “dissolved to form a stable, clear colourless solution”.

Values taken from patent US20050282943A1, “Solubilized additive composition comprising acidic and basic constituents” (INVISTA NORTH AMERICA S.A R.L., priority 2004, published 2005).
